Measured values reported in ChEMBL document CHEMBL3822426, “A cascade screening approach for the identification of Bcr-Abl myristate pocket binders active against wild type and T315I mutant” (Bioorg Med Chem Lett, 2016).

What was measured:
[1] = system: Tyrosine-protein kinase ABL1 (Homo sapiens), P00519 [T315I]; conditions: Sf21, 100 uM
[2] = target: Tyrosine-protein kinase ABL1 (Homo sapiens) (UniProt P00519); conditions: 50 uM
[3] = target: Tyrosine-protein kinase ABL1 (Homo sapiens) (UniProt P00519); conditions: 25 uM
[4] = target: Tyrosine-protein kinase ABL1 (Homo sapiens) (UniProt P00519); conditions: 100 uM
[5] = system: Tyrosine-protein kinase ABL1 (Homo sapiens), P00519 [T315I]; conditions: Sf21, 50 uM
[6] = system: Tyrosine-protein kinase ABL1 (Homo sapiens), P00519 [T315I]; conditions: Sf21, 25 uM

Q: With `C(=C\n1ncc2c(N3CCCCCC3)ncnc21)/c1ccccc1` as the compound, how does the Vmax(app) [1] read?
A: The Vmax(app) was 6.3 pmol/min.

Q: And the Vmax(app) [2]?
A: The Vmax(app) was 3.6 pmol/min.

Q: What about the Vmax(app) [3] of the same compound?
A: Its Vmax(app) is 8.2 pmol/min.

Q: And the Vmax(app) [4]?
A: The Vmax(app) was 3.66 pmol/min.

Q: And the Vmax(app) [5]?
A: The Vmax(app) was 10.3 pmol/min.

Q: What about the Vmax(app) [6] of the same compound?
A: Its Vmax(app) is 16.1 pmol/min.
